The conditions of the data set: rat, 1000 ng/mL.

For `COC(=O)[C@H](c1ccccc1Cl)N1CCc2sccc2C1` [clopidogrel, Clopidogrel], the “first order rate of hydrolysis” value stood at 0.0219 min⁻¹ and the “slope of fitted line, first order decomposition (Figure 2)” value was -0.0919.

The values above are taken from article PMC6274316, “Significant Improvement of Metabolic Characteristics and Bioactivities of Clopidogrel and Analogs by Selective Deuteration” (Molecules, 2016).
